Experimental data: patent publication US7041461B2 (H. Lundbeck A/S, priority 1998, dated 2006)

Experiments:
[1] = target: rat spinal cord membrane receptor; test: Radioligand binding to rat spinal cord membranes; conditions: * marks difference from NPFF1
Procedure: Transfected cells from culture flasks are scraped into 5 ml of 20 mM Tris-HCl, 5 mM EDTA, pH 7.5, and lysed by sonication. The cell lysates are centrifuged at 1000 rpm for 5 min. at 4° C., and the supernatant is centrifuged at 30,000× g for 20 min. at 4° C. […] Optimal membrane suspension dilutions, defined as the protein concentration required to bind less than 10% of the added radioligand, are added to 96-well polpropylene microtiter plates containing ^3H-labeled compound, unlabeled compounds, and binding buffer to a final volume of 250 μl. In equilibrium saturation binding assays membrane preparations are incubated in the presence of increasing concentrations of [^3H]-labeled compound.
Competition assay: 50 pM radioligand, 10–12 points. Binding reaction mixtures are incubated for 2 hr at 25° C., and the reaction stopped by filtration through a double layer of GF filters treated with 0.1% polyethyleneimine, using a cell harvester. Wash buffer: 50 mM Tris-HCl, 0.1% BSA. Radioactivity may be measured by scintillation counting and data are analyzed by a computerized non-linear regression program. Non-specific binding is defined as the amount of radioactivity remaining after incubation of membrane protein in the presence of 1 μM final concentration […]. Protein concentration may be measured by the Bradford method using Bio-Rad Reagent, with bovine serum albumin as a standard. […]

NPFF receptors = conditions: at a concentration of 10 μM; spinal cord membranes; cited from earlier work

- pKi for rat spinal cord membrane receptor binding, MEAN [1]: 5.000
Compound: CC(C)C[C@H](NC(=O)CNC(=O)[C@H](C)NC(=O)[C@H](CC(C)C)NC(=O)[C@H](CCCNC(=N)N)NC(=O)[C@H](Cc1c[nH]cn1)NC(=O)[C@@H](NC(=O)[C@@H](NC(=O)[C@@H]1CSSC[C@H](NC(=O)[C@H](C)N)C(=O)N[C@@H](CC(=O)O)C(=O)N[C@@H]([C@@H](C)O)C(=O)N[C@@H](C)C(=O)N[C@@H]([C@@H](C)O)C(=O)N1)C(C)C)[C@@H](C)O)C(=O)N[C@@H](CC(C)C)C(=O)N[C@@H](CO)C(=O)N[C@@H](CCCNC(=N)N)C(=O)N[C@@H](CO)C(=O)NCC(=O)NCC(=O)N[C@H](C(=O)N[C@H](C(=O)N[C@@H](CCCCN)C(=O)N[C@@H](CC(N)=O)C(=O)N[C@@H](CC(N)=O)C(=O)N[C@@H](Cc1ccccc1)C(=O)N[C@H](C(=O)N1CCC[C@H]1C(=O)N[C@H](C(=O)N[C@@H](CC(N)=O)C(=O)N[C@H](C(=O)NCC(=O)N[C@@H](CO)C(=O)N[C@@H](CCCCN)C(=O)N[C@@H](C)C(=O)N[C@@H](Cc1ccccc1)C(N)=O)C(C)C)[C@@H](C)O)C(C)C)C(C)C)C(C)C [CGRP]
- inhibition of [125I](1DMe)Y8Fa binding (NPFF receptors): No inhibition
